In patent US4960771A, “Oxazolidinone penetration enhancing compounds” (priority 1988, dated 1990):
Like-named read-outs stand apart in the source and are kept apart here.

Experiments:
[1] = 97% compound with 3% Diazepam; vs 97% DMSO or 72% compound with 25% additional adjuvant; cited from earlier work
[2] = Permeation of Isosorbide Dinitrate (ISDN) from transdermal patch through human stratum corneum (Example 31); settings: no enhancer (Control)
[3] = Permeation of Isosorbide Dinitrate (ISDN) from cream formulations through human stratum corneum (Example 37); settings: 1% ISDN, no enhancer (Control)
[4] = cream, 1% ISDN, no enhancer (Control)

SMILES	blood levels of Diazepam [1]	Average Cumulative Amount of ISDN in Micrograms permeating over 51 hours ([2]; 3% ISDN (60%)) [Micrograms]	Average Cumulative Amount of ISDN in Micrograms permeating over 51 hours ([2]; 3% ISDN (100%)) [Micrograms]	Average Cumulative Amount of ISDN in Micrograms permeating over 51 hours [3] [Micrograms]	Average Cumulative Amount of ISDN in Micrograms permeating over 51 hours [4] [Micrograms]
CN1CCN(C)C1=O [1,3-dimethylimidazolidin-2-one]	poor blood levels	–	–	–	–
O=[N+]([O-])O[C@H]1CO[C@H]2[C@@H]1OC[C@H]2O[N+](=O)[O-]	–	476 ± 167	702.7 ± 57	897.2 ± 70.7	759 ± 21
